Reference: paper PMC5384220, “Highly selective inhibition of histone demethylases by de novo macrocyclic peptides” (Nature Communications, 2017)

Amino acid sequences for entries named in this document (tags omitted).
UniProt O15054, whole entry: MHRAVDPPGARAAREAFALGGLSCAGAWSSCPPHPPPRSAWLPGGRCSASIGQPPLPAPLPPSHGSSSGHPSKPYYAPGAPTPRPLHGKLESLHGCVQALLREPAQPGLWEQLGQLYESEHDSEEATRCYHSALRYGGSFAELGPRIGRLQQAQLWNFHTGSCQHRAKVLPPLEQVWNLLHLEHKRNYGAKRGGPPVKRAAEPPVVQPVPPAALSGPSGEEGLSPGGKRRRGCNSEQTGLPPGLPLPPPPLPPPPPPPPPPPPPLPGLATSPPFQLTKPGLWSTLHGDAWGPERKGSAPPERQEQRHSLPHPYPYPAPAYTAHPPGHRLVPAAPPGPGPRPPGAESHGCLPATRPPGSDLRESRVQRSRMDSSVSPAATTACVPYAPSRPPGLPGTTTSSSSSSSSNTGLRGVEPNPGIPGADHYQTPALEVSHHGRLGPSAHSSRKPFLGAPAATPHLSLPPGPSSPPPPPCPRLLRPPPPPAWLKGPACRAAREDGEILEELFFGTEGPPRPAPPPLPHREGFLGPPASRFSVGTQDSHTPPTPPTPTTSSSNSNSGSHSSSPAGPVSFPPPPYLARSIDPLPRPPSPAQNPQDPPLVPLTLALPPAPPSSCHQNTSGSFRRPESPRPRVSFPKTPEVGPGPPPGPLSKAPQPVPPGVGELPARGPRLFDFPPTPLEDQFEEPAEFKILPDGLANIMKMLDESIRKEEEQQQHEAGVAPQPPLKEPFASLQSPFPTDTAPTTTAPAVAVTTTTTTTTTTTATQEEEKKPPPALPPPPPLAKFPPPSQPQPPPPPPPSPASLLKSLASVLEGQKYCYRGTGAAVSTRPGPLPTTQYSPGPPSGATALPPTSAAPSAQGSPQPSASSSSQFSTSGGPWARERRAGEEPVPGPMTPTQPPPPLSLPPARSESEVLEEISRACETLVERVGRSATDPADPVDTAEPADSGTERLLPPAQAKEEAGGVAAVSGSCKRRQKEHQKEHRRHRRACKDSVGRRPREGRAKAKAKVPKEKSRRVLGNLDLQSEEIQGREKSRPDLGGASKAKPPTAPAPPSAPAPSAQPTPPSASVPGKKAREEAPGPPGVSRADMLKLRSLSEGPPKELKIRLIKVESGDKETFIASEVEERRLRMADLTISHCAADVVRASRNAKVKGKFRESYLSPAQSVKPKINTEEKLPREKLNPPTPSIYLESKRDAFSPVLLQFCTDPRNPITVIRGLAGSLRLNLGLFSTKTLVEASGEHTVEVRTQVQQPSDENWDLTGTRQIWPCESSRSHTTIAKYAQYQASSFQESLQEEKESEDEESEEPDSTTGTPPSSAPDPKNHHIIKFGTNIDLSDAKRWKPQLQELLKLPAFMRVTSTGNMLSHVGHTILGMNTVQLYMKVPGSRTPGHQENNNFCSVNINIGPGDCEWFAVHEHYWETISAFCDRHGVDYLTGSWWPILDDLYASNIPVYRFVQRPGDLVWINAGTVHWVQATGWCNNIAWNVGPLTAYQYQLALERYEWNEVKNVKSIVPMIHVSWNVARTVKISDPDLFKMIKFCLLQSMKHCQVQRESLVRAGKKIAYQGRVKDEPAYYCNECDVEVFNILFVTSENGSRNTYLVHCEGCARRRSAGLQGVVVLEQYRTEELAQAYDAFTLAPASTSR

T1: KDM4E (human, UniProt B2RXH2 1-506)
T1 sequence (looked up): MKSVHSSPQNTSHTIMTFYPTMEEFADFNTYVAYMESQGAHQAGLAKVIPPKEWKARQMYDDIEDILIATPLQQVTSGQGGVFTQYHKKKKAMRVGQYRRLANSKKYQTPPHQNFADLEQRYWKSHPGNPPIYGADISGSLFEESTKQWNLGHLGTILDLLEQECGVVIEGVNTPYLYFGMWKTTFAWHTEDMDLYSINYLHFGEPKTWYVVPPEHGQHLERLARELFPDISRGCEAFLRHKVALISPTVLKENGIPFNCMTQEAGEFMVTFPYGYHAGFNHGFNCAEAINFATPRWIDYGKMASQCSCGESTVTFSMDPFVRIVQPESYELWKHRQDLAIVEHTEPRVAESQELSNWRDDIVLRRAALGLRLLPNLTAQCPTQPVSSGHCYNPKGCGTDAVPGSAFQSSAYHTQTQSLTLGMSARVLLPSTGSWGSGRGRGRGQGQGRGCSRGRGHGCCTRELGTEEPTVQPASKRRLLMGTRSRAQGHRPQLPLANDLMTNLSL

T2: KDM4D (human, UniProt Q6B0I6 1-523)
T2 sequence (looked up): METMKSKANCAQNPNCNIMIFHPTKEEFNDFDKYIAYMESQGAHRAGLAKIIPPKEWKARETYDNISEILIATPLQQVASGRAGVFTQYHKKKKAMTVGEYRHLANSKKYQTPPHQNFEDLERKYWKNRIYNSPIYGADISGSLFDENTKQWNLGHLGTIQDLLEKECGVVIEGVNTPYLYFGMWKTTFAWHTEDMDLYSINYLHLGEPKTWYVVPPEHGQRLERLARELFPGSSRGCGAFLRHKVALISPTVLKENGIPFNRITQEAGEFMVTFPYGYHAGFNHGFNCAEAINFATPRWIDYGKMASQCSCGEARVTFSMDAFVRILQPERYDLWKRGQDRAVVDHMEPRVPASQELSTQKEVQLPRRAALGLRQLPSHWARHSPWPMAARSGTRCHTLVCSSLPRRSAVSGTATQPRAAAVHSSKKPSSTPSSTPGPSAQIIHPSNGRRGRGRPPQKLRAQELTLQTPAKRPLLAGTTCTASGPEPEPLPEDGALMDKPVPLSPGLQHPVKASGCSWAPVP

T3: KDM3A (human, UniProt Q9Y4C1 1-1321)
T3 sequence (looked up): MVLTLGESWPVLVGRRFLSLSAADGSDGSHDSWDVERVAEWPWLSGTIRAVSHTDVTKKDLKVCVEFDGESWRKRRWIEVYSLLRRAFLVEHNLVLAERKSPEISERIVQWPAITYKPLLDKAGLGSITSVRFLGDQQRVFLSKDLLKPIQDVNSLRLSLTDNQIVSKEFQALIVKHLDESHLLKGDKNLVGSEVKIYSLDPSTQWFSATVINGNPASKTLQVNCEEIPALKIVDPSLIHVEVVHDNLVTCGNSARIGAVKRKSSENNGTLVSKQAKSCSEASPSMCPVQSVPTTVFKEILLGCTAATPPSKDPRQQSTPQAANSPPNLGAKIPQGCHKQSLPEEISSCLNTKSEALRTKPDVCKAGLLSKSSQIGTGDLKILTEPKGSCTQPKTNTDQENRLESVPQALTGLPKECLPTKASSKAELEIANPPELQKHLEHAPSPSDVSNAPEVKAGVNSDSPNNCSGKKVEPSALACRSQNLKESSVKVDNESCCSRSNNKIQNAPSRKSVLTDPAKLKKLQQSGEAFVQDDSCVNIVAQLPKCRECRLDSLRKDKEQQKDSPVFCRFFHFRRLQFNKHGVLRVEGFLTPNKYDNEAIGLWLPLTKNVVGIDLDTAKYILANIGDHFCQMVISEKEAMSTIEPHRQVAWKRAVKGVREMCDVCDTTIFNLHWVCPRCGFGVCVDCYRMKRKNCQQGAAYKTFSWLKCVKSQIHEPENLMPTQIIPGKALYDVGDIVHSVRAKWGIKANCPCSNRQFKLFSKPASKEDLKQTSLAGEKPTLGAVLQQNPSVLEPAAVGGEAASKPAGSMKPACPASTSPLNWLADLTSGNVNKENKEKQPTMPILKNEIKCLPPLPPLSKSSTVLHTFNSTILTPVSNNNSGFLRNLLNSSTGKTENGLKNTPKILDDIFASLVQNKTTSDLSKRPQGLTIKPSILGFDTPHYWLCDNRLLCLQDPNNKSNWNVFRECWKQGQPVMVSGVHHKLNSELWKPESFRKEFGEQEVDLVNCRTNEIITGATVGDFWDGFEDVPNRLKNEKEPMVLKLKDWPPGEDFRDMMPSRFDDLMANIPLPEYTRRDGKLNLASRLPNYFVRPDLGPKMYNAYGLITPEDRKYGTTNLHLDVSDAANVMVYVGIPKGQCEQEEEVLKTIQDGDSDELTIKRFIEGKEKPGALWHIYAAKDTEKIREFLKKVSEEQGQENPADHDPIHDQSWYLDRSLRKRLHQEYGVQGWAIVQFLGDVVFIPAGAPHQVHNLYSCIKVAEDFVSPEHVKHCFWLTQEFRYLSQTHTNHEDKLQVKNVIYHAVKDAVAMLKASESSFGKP

T4: His-KDM4A_(1–359)-Bio (human, UniProt O75164 1-359, biotin on the AviTag (>95% biotinylation))
T4 construct: KDM4A, residues 1-359, cloned into pNIC-Bio3; also called His-KDM4A-Bio; His-KDM4A with biotin; not shown: AviTag, C-terminal, kept
T4 sequence (looked up): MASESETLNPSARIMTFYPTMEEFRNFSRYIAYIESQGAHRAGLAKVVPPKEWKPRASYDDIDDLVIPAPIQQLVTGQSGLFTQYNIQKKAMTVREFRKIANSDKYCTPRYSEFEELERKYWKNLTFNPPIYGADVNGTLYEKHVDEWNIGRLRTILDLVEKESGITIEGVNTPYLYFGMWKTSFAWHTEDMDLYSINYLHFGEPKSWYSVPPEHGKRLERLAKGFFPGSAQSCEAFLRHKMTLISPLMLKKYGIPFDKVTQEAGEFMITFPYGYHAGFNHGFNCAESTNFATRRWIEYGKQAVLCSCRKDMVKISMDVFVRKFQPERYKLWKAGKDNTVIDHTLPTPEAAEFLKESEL

T5: KDM4C (human, UniProt Q9H3R0 1-1056)
T5 sequence (looked up): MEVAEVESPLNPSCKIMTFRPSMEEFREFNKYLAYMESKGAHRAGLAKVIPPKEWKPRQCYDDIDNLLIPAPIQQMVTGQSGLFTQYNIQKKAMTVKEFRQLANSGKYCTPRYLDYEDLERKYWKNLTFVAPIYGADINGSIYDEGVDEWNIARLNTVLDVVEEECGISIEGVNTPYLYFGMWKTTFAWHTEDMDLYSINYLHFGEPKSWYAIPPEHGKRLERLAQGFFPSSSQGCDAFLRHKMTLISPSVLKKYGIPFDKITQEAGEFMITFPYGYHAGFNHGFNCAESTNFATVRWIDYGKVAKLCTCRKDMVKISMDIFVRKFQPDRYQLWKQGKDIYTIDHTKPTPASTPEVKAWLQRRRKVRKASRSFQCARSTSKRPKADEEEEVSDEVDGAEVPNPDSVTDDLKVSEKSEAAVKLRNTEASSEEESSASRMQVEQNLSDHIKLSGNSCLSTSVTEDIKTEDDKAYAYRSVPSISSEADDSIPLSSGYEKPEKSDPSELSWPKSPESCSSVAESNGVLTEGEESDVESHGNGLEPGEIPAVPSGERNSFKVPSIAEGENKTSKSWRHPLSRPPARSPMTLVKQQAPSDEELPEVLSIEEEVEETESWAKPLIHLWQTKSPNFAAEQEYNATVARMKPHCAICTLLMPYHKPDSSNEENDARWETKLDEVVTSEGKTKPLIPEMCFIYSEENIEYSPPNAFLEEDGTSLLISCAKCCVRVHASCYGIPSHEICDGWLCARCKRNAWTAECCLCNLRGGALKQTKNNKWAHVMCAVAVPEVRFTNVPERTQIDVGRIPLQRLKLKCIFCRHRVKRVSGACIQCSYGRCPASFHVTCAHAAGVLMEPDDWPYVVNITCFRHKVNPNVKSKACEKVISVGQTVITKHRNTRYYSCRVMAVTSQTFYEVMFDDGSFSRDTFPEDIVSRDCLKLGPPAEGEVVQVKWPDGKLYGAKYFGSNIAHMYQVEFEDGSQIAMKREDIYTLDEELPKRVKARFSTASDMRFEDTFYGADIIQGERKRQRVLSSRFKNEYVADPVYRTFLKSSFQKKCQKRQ

T6: N-terminally Hexa-His-tagged KDM4A (residues 1–359) (human, UniProt O75164 1-359)
T6 sequence (looked up): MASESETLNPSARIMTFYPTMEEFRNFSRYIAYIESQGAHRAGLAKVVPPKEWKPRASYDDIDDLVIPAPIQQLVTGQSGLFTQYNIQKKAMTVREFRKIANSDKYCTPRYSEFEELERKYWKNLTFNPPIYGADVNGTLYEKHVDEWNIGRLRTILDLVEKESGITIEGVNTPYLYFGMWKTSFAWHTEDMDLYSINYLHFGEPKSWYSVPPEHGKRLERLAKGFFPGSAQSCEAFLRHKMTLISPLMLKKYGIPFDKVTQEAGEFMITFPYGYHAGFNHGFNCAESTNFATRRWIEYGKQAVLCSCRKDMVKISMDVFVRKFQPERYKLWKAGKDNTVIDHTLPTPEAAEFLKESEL

T7: KDM4B (human, UniProt O94953 1-1096)
T7 sequence (looked up): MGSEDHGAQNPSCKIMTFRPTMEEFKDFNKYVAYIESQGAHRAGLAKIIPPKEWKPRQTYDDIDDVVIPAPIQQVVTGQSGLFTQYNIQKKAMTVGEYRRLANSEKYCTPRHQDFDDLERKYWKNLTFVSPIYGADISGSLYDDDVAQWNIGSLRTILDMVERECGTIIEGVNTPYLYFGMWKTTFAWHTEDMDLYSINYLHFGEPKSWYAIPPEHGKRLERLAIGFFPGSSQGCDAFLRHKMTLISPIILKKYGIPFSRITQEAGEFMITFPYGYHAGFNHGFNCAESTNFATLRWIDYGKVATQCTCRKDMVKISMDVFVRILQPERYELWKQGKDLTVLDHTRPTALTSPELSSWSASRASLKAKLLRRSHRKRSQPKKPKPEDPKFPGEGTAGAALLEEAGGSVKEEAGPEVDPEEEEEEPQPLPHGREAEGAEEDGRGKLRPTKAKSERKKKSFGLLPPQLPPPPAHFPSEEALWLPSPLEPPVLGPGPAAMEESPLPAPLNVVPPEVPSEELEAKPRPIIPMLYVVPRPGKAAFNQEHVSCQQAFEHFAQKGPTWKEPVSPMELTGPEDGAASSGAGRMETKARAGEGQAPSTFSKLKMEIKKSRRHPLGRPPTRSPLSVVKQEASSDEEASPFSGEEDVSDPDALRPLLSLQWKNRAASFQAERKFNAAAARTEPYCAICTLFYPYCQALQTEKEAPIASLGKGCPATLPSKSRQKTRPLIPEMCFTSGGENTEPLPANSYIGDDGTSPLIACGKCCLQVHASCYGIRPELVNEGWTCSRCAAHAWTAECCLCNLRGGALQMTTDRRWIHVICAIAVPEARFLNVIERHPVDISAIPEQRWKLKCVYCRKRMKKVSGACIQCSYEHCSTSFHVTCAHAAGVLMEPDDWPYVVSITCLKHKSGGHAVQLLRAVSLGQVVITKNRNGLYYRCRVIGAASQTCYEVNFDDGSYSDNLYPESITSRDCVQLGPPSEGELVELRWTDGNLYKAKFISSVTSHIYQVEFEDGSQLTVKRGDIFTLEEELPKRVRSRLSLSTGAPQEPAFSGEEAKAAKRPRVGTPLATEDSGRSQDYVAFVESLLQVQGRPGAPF


Assays:
[1] = target: KDM6B (human, UniProt O15054 1-1643); assay: cell-based or functional assay
[2] = target: T1, KDM4E; assay: cell-based or functional assay
[3] = target: T2, KDM4D; assay: cell-based or functional assay
[4] = target: T3, KDM3A; assay: cell-based or functional assay
[5] = target: T4, His-KDM4A_(1–359)-Bio; assay: BLI; His-KDM4A(1–359)-Bio (70 nM) immobilised on super streptavidin biosensor, peptides at different concentrations in solution; OctetRed 384; 50 mM HEPES pH 7.5, 150 mM NaCl, 10 μM ammonium iron(II) sulphate; settings: both partners purified
[6] = target: T5, KDM4C; assay: cell-based or functional assay
[7] = target: T6, N-terminally Hexa-His-tagged KDM4A …; assay: cell-based or functional assay
[8] = target: T7, KDM4B; assay: cell-based or functional assay

Binder | IC50 of inhibition of demethylase activity (AlphaScreen activity assay) [1] | IC50 of inhibition of demethylase activity (AlphaScreen activity assay) [2] | IC50 of inhibition of demethylase activity (AlphaScreen activity assay) [3] | IC50 of inhibition of demethylase activity (AlphaScreen activity assay) [4] | Kd [5] | IC50 of inhibition of demethylase activity (AlphaScreen activity assay) [6] | IC50 of inhibition of demethylase activity (AlphaScreen activity assay) [7] | IC50 of inhibition of demethylase activity (AlphaScreen activity assay) [8]
YLKSRRSGLTWIPC (N-terminal L-Tyr (^LTyr library, N-chloroacetyl-L-Tyr) cyclised by a thioether to a downstream cysteine) [CP4] | 7200 nM | 4700 nM | 6260 nM | 9900 nM | 36 nM | – | – | –
YSKYTQSGVRWVC (N-terminal L-Tyr (^LTyr library, N-chloroacetyl-L-Tyr) cyclised by a thioether to a downstream cysteine) [CP5] | – | 8900 nM | – | – | 173 nM | 123 nM | 313 nM | 472 nM
